# Assay results as given in paper PMC6718340 (Archives of biochemistry and biophysics, 2019).
# Molecular target: abHemO (A. baumannii LAC-4 HemO) (Acinetobacter baumannii, UniProt A0A0D5YK34)
# Settings: 1 μM abHemO, 20 mM Tris-HCl pH 8.0, heme 0.1 to 15 μM, ferric heme
structure (smiles),measurement,value
C=CC1=C(C)C2=Cc3c(C=C)c(C)c4[n]3[Fe]([Cl])[n]3c(c(C)c(CCC(=O)O)c3=CC3=NC(=C4)C(C)=C3CCC(=O)O)=CC1=N2 [heme],Kd,430 nM
